According to ChEMBL document CHEMBL5532707, “SETDB1 as a cancer target: challenges and perspectives in drug design” (RSC Med Chem, 2024):

Molecular target: T1, Histone-lysine N-methyltransferase EHMT1 (Homo sapiens, UniProt Q9H9B1)
T1 sequence (Q9H9B1 whole entry): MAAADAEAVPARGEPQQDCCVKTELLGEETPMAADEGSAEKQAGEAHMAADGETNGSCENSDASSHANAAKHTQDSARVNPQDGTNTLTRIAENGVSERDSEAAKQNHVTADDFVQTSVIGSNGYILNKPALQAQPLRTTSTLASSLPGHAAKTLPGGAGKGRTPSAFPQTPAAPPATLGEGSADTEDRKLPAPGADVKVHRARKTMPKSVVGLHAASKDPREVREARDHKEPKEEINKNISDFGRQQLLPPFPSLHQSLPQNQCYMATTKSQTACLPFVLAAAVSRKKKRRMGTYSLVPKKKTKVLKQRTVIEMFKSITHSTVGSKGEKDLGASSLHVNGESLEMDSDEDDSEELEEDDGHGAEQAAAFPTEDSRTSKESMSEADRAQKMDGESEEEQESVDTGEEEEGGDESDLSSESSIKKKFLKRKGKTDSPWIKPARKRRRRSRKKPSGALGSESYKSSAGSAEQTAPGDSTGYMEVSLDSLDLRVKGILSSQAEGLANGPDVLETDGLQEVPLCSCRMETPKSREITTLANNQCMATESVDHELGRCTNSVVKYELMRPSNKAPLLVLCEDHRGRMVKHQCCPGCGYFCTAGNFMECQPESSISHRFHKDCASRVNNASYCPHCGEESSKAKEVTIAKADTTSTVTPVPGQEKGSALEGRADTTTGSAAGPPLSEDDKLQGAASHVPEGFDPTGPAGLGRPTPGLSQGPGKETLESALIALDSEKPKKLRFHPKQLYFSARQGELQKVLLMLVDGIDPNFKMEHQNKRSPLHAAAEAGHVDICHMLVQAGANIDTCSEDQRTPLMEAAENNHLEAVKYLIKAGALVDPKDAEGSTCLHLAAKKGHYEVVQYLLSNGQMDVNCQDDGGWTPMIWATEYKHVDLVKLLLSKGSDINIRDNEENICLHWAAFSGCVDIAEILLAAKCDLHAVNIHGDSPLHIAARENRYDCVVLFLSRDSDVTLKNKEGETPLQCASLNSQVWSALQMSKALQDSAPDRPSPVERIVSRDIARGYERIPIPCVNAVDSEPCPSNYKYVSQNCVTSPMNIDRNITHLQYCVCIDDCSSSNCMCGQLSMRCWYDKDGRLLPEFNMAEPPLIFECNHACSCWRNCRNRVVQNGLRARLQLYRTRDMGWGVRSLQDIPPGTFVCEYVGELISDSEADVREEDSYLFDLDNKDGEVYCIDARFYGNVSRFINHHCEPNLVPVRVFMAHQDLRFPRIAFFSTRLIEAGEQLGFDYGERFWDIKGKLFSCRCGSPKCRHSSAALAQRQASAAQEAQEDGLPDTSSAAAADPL
Assay: Inhibition of GLP (610 to 917 residues ) (unknown origin) expressed in Escherichia coli BL21 using H3(1 to 20)cys as substrate and SAM as cosubstrate by spectrometry based analysis

Q: For `COc1cc2nc(N3CCCN(C)CC3)nc(NC3CCN(Cc4ccccc4)CC3)c2cc1OC`, which IC50 is on record?
A: 1700 nM
